Results taken from PubChem BioAssay (Tox21).
Only a part is listed here, and it is no random draw. Inconclusive results are not listed. Active and inactive are the calls of the source. Unless noted, the call rests on the fitted dose curve; in most records, active means well fitted curve in the direction sought with a large enough effect in the repeat runs; inconclusive means weak or mixed curves; inactive means no such curve, though single readings can be large; an effect the other way counts as inactive or inconclusive.

Protein sequences, listed by entry. Tags and fused reporters are not part of them.
UniProt P04150, whole entry: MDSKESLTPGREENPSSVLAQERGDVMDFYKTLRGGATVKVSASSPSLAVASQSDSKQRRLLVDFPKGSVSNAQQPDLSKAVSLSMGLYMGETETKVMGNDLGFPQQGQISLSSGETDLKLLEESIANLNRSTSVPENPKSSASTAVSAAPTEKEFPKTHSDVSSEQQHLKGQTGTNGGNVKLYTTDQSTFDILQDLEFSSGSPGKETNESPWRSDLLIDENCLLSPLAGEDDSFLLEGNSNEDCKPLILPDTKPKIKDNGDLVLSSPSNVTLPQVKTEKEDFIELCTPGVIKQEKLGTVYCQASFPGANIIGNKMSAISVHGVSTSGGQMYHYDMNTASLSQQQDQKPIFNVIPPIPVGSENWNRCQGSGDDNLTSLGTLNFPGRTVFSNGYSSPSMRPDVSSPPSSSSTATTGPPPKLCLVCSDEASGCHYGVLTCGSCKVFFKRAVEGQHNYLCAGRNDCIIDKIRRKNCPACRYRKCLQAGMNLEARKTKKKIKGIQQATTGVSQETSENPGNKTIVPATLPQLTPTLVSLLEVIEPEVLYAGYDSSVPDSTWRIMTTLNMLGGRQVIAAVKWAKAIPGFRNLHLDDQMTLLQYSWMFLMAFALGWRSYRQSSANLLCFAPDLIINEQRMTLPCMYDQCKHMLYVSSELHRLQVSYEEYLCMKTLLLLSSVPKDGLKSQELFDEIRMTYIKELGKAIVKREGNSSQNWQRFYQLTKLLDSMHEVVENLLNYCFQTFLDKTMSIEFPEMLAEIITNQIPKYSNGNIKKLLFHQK

How the values were obtained:
[1] = qHTS assay for small molecules that induce genotoxicity in human embryonic kidney cells expressing luciferase-tagged ATAD5 (AID 651632); further: nearly all actives have a fitted effect of over 15% in size; further: potency means the concentration at half of the fitted maximal effect
Procedure, shortened: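 HEK293T cells carrying a luciferase reporter tagged to ATAD5 were exposed to compound or DMSO vehicle for 16 hr at 37C, 5% CO2. Amplite was added, and after 30 min at room temperature luciferase activity was read as a marker of ATAD5 induction.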

[2] = qHTS assay for small molecule agonists of the p53 signaling pathway - cell viability (AID 651633; calls by dose curve;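 further: p53RE-bla HCT reporter cells with a stable beta-lactamase p53 reporter; nearly all actives have a fitted effect of over 30% in size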); conditions: p53RE-bla HCT-116 viability, ATP luminescence, 16 h
Procedure, shortened: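 Viability counter-read: CellTiter-Glo luminescence (30 min, room temperature) in the same p53RE-bla plates. These plates had been exposed to compounds for 16 h at 37 C.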

[3] = qHTS assay for small molecules that induce genotoxicity in human embryonic kidney cells expressing luciferase-tagged ATAD5 - cell viability (AID 651634; calls by dose curve; further: nearly all actives have a fitted effect of over 25% in size); conditions: HEK293T ATAD5-luc cells viability, CellTiter-Fluor, 15.5 h
Procedure, shortened: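 HEK293T cells expressing luciferase-tagged ATAD5 were exposed to compound or DMSO for 15.5 hr at 37C, 5% CO2. Viability was then read as live-cell protease activity by CellTiter-Fluor fluorescence after 30 min at 37C.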

[4] = qHTS assay for small molecule disruptors of the mitochondrial membrane potential - cell viability (AID 720634; calls by dose curve;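 further: human HepG2 liver cancer cells; nearly all actives have a fitted effect of over 20% in size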); conditions: HepG2 viability, ATP luminescence (CellTiter-Glo), 1 h
Procedure, shortened: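 HepG2 cells seeded overnight at 37 C, then exposed to compound or DMSO for 1 hr at 37 C, 5% CO2. m-MPI dye added, then CellTiter-Glo for 30 min at room temperature; viability read as ATP luminescence.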

[5] = qHTS assay to test for compound auto fluorescence at 590 nm (red) in HepG2 cells (AID 720674); conditions: HepG2 autofluorescence, red 540/590 nm, 1 h
Procedure, shortened: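 We screened compounds on adherent HepG2 cells, incubating them for an hour at 37 C in 5% CO2 before reading emission at 590 nm under 540 nm excitation; values reflect equivalence to Rose Bengal sodium fluorescence.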

[6] = qHTS assay to test for compound auto fluorescence at 535 nm (green) in HepG2 cells (AID 720675); conditions: green autofluorescence 485/535 nm, 1 h
[7] = qHTS assay to test for compound auto fluorescence at 460 nm (blue) in HEK293 cells (AID 720678); conditions: blue autofluorescence 405/460 nm
Procedure, shortened: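 Cells were seeded and left to adhere for 4-5 hr at 37C. Compounds were then pin-transferred. After an overnight incubation at 37C under 5% CO2, intrinsic fluorescence at 405/460 nm was measured and referenced to triamterene.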

[8] = qHTS assay to test for compound auto fluorescence at 590 nm (red) in HEK293 cells (AID 720679); conditions: red autofluorescence 540/590 nm
Procedure, shortened: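 Each well held 2,000 HEK293 cells in medium containing 10% dialyzed FBS. Following 4-5 hr attachment at 37C, 23 nL test compound or DMSO was added; plates sat overnight, and red fluorescence (540/590nm) was recorded.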

[9] = qHTS assay to test for compound auto fluorescence at 535 nm (green) in HEK293 cells (AID 720680); conditions: green autofluorescence 485/535 nm
[10] = qHTS assay to test for compound auto fluorescence at 460 nm (blue) in HEK293 cell free culture (AID 720681); conditions: cell-free medium, autofluorescence 405/460 nm (blue)
Procedure, shortened: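 Blue fluorescence (Ex 405/Em 460 nm, triamterene-equivalent) was read immediately after pin transfer of compound or DMSO into medium (DMEM, 10% FBS) without cells.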

[11] = qHTS assay to test for compound auto fluorescence at 535 nm (green) in HEK293 cell free culture (AID 720682); conditions: cell-free medium, green autofluorescence 485/535 nm, active compounds read high
Procedure, shortened: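 DMEM + 10% FBS, cell-free; cpd or DMSO pinned in; Ex485/Em535 read; output as fluorescein-equivalent signal.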

[12] = qHTS assay to test for compound auto fluorescence at 590 nm (red) in HEK293 cell free culture (AID 720683); conditions: cell-free medium autofluorescence, Ex540/Em590 red
Procedure, shortened: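 Red-channel autofluorescence of compounds in culture medium (DMEM, 10% FBS), no cells, measured at 540/590 nm. Rose Bengal sodium is the reference fluorophore for equivalence.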

[13] = qHTS assay to test for compound auto fluorescence at 590 nm (red) in HepG2 cell free culture (AID 720684); conditions: cell-free medium autofluorescence, red 540/590 nm
Procedure, shortened: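 Plate contents were MEM with 10% FBS plus test compound or DMSO, no cells. Fluorescence was recorded with 540 nm excitation and 590 nm emission.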

[14] = qHTS assay to test for compound auto fluorescence at 460 nm (blue) in HepG2 cell free culture (AID 720685); conditions: Cell-free culture medium, blue autofluorescence 405/460 nm
Procedure, shortened: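 Compound (23 nL) or DMSO pinned into cell-free MEM with 10% FBS; blue fluorescence read at 405/460 nm excitation/emission, expressed as auto-fluorescence equivalency to triamterene.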

[15] = qHTS assay to test for compound auto fluorescence at 535 nm (green) in HepG2 cell free culture (AID 720686); conditions: Cell-free medium, green autofluorescence 485/535 nm
[16] = qHTS assay to test for compound auto fluorescence at 460 nm (blue) in HepG2 cells (AID 720687); conditions: autofluorescence 405/460 nm, 1 h
Procedure, shortened: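 Blue-channel autofluorescence (Ex/Em 405/460 nm, triamterene-equivalent) was measured after 1 hr compound exposure at 37 C, 5% CO2. Cells were HepG2, plated overnight at 37 C in MEM plus 10% FBS.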

[17] = molecular target: Glucocorticoid receptor (Homo sapiens) (UniProt P04150); assay: qHTS assay to identify small molecule agonists of the glucocorticoid receptor (GR) signaling pathway (AID 720691; active means well fitted activation curve with a large enough effect in the signal ratio in the repeat runs, not every such curve was filed as active; the % refers to the signal ratio); conditions: GR-bla HeLa, beta-lactamase reporter ratio, 18 h
[18] = molecular target: Glucocorticoid receptor (Homo sapiens) (UniProt P04150); assay: qHTS assay to identify small molecule antagonists of the glucocorticoid receptor (GR) signaling pathway (AID 720692; active means well fitted inhibition curve with a large enough effect in the signal ratio in the repeat runs, not every such curve was filed as active; the % refers to the signal ratio); conditions: GR-bla HeLa, beta-lactamase FRET ratio, dexamethasone-stimulated, 18 h; at 78.9 µM (top of the series)
[19] = qHTS assay for identifying genotoxic compounds that show differential cytotoxicity against isogenic chicken DT40 cell lines with known DNA damage response pathways - wild type cell line (AID 743012); conditions: DT40 wild type chicken cells viability, CellTiter-Glo, 40 h; at 68.4 µM (top of the series); further: nearly all actives have a fitted effect of over 60% in size
Procedure, shortened: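 Parental DNA repair-proficient DT40 cells, 300 per well, were pre-incubated ~0.5 h at 37 C/5% CO2, pin-dosed with compounds in DMSO, then incubated 40 h. Viability was read as CellTiter-Glo luminescence after 30 min at room temperature.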
On the % scale 0 is the no-effect control and ±100 the full control effect.

CCN(CC)CCCl
inactive: activity change, negative = cytotoxicity ([2]; at 95.3 µM (top of the series)) 7.96% | activity, negative = cytotoxicity ([3]; at 95.3 µM (top of the series)) -13.8% | activity change, negative = cytotoxicity ([4]; at 95.3 µM (top of the series)) 7.09% | fluorescence, relative to Rose Bengal ([5]; at 95.7 µM (top of the series)) 0.0168% | fluorescence, % of fluorescein control ([6]; at 95.7 µM (top of the series)) 0.0019% | fluorescence, % of triamterene ([7]; at 95.7 µM (top of the series)) -0.412% | fluorescence, % of fluorescent control ([8]; at 95.7 µM (top of the series)) -0.0195% | fluorescence, % of fluorescein ([9]; at 95.7 µM (top of the series)) -0.126% | fluorescence, % of fluorescent control ([10]; at 95.7 µM (top of the series)) -0.118% | activity change ([11]; at 95.7 µM (top of the series)) -0.0977% | fluorescence, % of fluorescent control ([12]; at 95.7 µM (top of the series)) -0.294% | fluorescence, % of Rose Bengal ([13]; at 95.7 µM (top of the series)) -0.0167% | fluorescence, % of fluorescent control ([14]; at 95.7 µM (top of the series)) 0.0255% | fluorescence, % of fluorescein control ([15]; at 95.7 µM (top of the series)) -0.0195% | fluorescence, % of fluorescent control ([16]; at 95.7 µM (top of the series)) -0.159% | activation ([17]; at 79.2 µM (top of the series)) 0.972% | activity change, negative = inhibition [18] 17.8%
active: Potency [1] 62 µM

Cc1ccc([N+](=O)[O-])c([N+](=O)[O-])c1
inactive: Potency [1] | activity change, negative = cytotoxicity ([2]; at 83.3 µM (top of the series)) 14.4% | activity change, negative = cytotoxicity ([2]; at 95.3 µM (top of the series)) -29% | activity, negative = cytotoxicity ([3]; at 83.3 µM (top of the series)) -23% | activity, negative = cytotoxicity ([3]; at 95.3 µM (top of the series)) -6.06% | activity change, negative = cytotoxicity ([4]; at 83.2 µM (top of the series)) -6.61% | fluorescence, relative to Rose Bengal ([5]; at 91.3 µM (top of the series)) 0.177% | fluorescence, relative to Rose Bengal ([5]; at 95.7 µM (top of the series)) 0.0101% | fluorescence, % of fluorescein control ([6]; at 91.3 µM (top of the series)) 0.0147% | fluorescence, % of fluorescein control ([6]; at 95.7 µM (top of the series)) -0.0005% | fluorescence, % of triamterene ([7]; at 91.3 µM (top of the series)) -0.006% | fluorescence, % of triamterene ([7]; at 95.7 µM (top of the series)) -0.16% | fluorescence, % of fluorescent control ([8]; at 91.3 µM (top of the series)) -1.06% | fluorescence, % of fluorescent control ([8]; at 95.7 µM (top of the series)) 0.113% | fluorescence, % of fluorescein ([9]; at 91.3 µM (top of the series)) -0.008% | fluorescence, % of fluorescein ([9]; at 95.7 µM (top of the series)) 0.107% | fluorescence, % of fluorescent control ([10]; at 91.3 µM (top of the series)) 0.0322% | fluorescence, % of fluorescent control ([10]; at 95.7 µM (top of the series)) -0.145% | activity change ([11]; at 91.3 µM (top of the series)) -0.0043% | activity change ([11]; at 95.7 µM (top of the series)) 0.0227% | fluorescence, % of fluorescent control ([12]; at 91.3 µM (top of the series)) 0.266% | fluorescence, % of fluorescent control ([12]; at 95.7 µM (top of the series)) -0.403% | fluorescence, % of Rose Bengal ([13]; at 91.3 µM (top of the series)) 0.0039% | fluorescence, % of Rose Bengal ([13]; at 95.7 µM (top of the series)) 0.231% | fluorescence, % of fluorescent control ([14]; at 91.3 µM (top of the series)) 0.0167% | fluorescence, % of fluorescent control ([14]; at 95.7 µM (top of the series)) -0.157% | fluorescence, % of fluorescein control ([15]; at 91.3 µM (top of the series)) 0.0144% | fluorescence, % of fluorescein control ([15]; at 95.7 µM (top of the series)) -0.0052% | fluorescence, % of fluorescent control ([16]; at 91.3 µM (top of the series)) -0.0232% | fluorescence, % of fluorescent control ([16]; at 95.7 µM (top of the series)) -0.403% | activation ([17]; at 62.4 µM (top of the series)) -9.97% | activation ([17]; at 79.2 µM (top of the series)) -3.79% | activity change, negative = cytotoxicity [19] -8.6%
